According to patent US7501542B2, “Highly-packed polycationic ammonium, sulfonium and phosphonium lipids” (Invitrogen Corporation, priority 1993, dated 2009):

Key:
NIH-3T3 cells = assay: Transfection of NIH-3T3 cells with pCMV β-gal DNA, in situ β-galactosidase staining; format: cell-based
Procedure: (§1) Standard tissue culture methods were employed. […] All cultures were incubated at 37° C., 5% CO2.
(§2) Antibiotics were never present during lipid-mediated transfections.

CHO-K1 cells = assay: Transfection of CHO-K1 cells with pCMV β-gal DNA, in situ β-galactosidase staining; format: cell-based, Chinese hamster
Procedure: as §1, §2

Jurkat cells = assay: Transfection of Jurkat cells with pCMVCAT DNA, CAT activity of cell lysates; format: cell-based
Procedure: as §1
For each transfection sample, 1×10^6 Jurkat cells were centrifuged in a microfuge tube. The cell pellets were suspended with the lipid-DNA complex solutions and transferred to wells of 12-well plates. […] After approximately 24 hr, one ml growth medium containing 10% FBS, 50 ng/ml PMA and 1 μg/ml PHA was added to each well. Antibiotics were never present during lipid-mediated transfections. Cells were harvested at approximately 48 hr post-transfection by centrifugation. Cell lysates were prepared by resuspending cell pellets at 0° C. in 1 M Tris-HCl pH 8.0 containing 0.1% Triton X-100 and 5 μl aliquots were assayed for chloramphenicol acetyltransferase (“CAT”)activity.
Cell lysates were assayed for CAT activity as described by Neumann et al. (1987) BioTechniques 5:444. Cells were rinsed with PBS and frozen at −70° C. in 0.5-1.5 ml 0.1% Triton X-100 in 0.1 M Tris, pH 8.0. After rapid thawing at 37° C., the lysate was cleared by centrifugation. When more than 5 μl of a 1 ml extract was to be used in the assay, the extract was heated to 65° C. for 10 minutes to inactivate any deacetylases present, and centrifuged again. When necessary, the extract was diluted in 0.1 M Tris pH 7.8-8.0. […]

[1] = test system: primary human fibroblasts; assay: Transfection of primary human fibroblasts with pCMV β-gal DNA, in situ β-galactosidase staining; details: primary human fibroblast cells

Measured: toxicity to transfected cells

N,N,N′,N′-tetramethyltetrapalmyl-sperminetetrammonium iodide [Compound 3]
minimal toxicity: all assays above
